From article PMC8619202, “Optimization of Microwave-Assisted Green Method for Enhanced Solubilization of Water-Soluble Curcuminoids Prepared Using Steviol Glycosides” (Foods, 2021) come the findings set out here.

The data set is described as follows: Storage stability of curcuminoids solubilized in steviol glycoside solutions, HPLC. The protocol:
In order to evaluate the stability in 10% (w/v) SGs, the water-soluble curcuminoids were analyzed by HPLC for 1 month. […] In order to achieve better solubility, transglycosylation is regarded as an important procedural phenomenon that leads to structural modifications and derivatizations that result in enhanced biological activities and improved solubility. Moreover, heating in the case of microwave irradiation is usually dependent on the nature of the sample, the solvent employed, and the irradiation power level mediated through the ionic conduction and dipole rotation (also known as dipole polarization) of the microwaves. In the absence of ions, water dipoles are found in the free form and may experience dipole rotation due to microwave radiation-induced oscillation.

On to rebaudioside [Reb-A], for which the “stability of aqueous curcuminoid solutions on long-term storage” value is “did not exhibit good stability”.
